Assay results from patent publication US20160051695A1, “HER2 ANTIBODY-DRUG CONJUGATES” (AbGenomics International Inc., priority 2014, published 2016).

Key:
[1] = test system: NCI-N87 gastric cancer cells; assay: Binding of antibodies and Tap18Hr1 conjugates to cells, flow cytometry; parameters: species or system human; details: Unconjugated Ab, 3.3 μg/mL
[2] = test system: SKOV-3 ovarian cancer cells; assay: as above; parameters: species or system human; details: Unconjugated Ab, 3.3 μg/mL
[3] = test system: MDA-MB-453 breast cancer cells; assay: as above; parameters: species or system human; details: Unconjugated Ab, 3.3 μg/mL
[4] = test system: JIMT-1 breast cancer cells; assay: as above; parameters: species or system human; details: Unconjugated Ab, 3.3 μg/mL
[5] = test system: NCI-N87 gastric cancer cells; assay: In vitro cytotoxicity assay: WST-1; assay type: cell-based, human
[6] = test system: SKOV-3 ovarian cancer cells; assay: In vitro cytotoxicity assay: WST-1; assay type: cell-based, human
[7] = test system: MDA-MB-453 breast cancer cells; assay: In vitro cytotoxicity assay: WST-1; assay type: cell-based, human; details: MDA-MB-453, 96 hours
[8] = test system: JIMT-1 breast cancer cells; assay: In vitro cytotoxicity assay: WST-1; assay type: cell-based, human

Substance: Anti-HER2-IgG1: humanized anti-HER2 antibody, light chain SEQ ID NO. 9, heavy chain SEQ ID NO. 10 (trastuzumab sequences, human IgG1)
- MFI [1]: 9871 and 9698
- MFI [2]: 8157 and 6206
- MFI [3]: 8009
- MFI [4]: 1574 and 1550 and 1738 and 1026
- % inhibition ([5]; 1.25 μg/mL): 36.9%
- % inhibition ([5]; 5 μg/mL): 46.7%
- % inhibition ([6]; 1.25 μg/mL): −2.9%
- % inhibition ([6]; 5 μg/mL): 0.9%
- % inhibition ([7]; 1.25 μg/mL): 56.8%
- % inhibition ([7]; 5 μg/mL): 58.9%
- % inhibition ([8]; 1.25 μg/mL): 7.2%
- % inhibition ([8]; 5 μg/mL): 9.3%

Where “and” joins values, the source holds several entries; their conditions need not be identical. Equal values may be shown once.
